In PMC3298469, “A selective and potent CXCR3 antagonist SCH 546738 attenuates the development of autoimmune diseases and delays graft rejection” (BMC Immunology, 2012):

Tested on: C57BL/6 mice
Test: mouse experimental autoimmune encephalomyelitis (MOG35-55)
Format: in vivo
Conditions: 1700 ng daily intramuscular injection, alone

B1: IFN-β: interferon-β, a current first-line therapeutic for relapsing-remitting MS (protein, UniProt P01574 22-187, looked up)
Interferon beta: MSYNLLGFLQRSSNFQCQKLLWQLNGRLEYCLKDRMNFDIPEEIKQLQQFQKEDAALTIYEMLQNIFAIFRQDSSSTGWNETIVENLLANVYHQINHLKTVLEEKLEKEDFTRGKLMSSLHLKRYYGRILHYLKAKEYSHCAWTIVRVEILRNFYFINRLTGYLRN
effect on disease onset and severity: significantly delayed disease onset and attenuated disease severity
